Earlier results, collected in PMC9491098, “Discovery of novel drug-like antitubercular hits targeting the MEP pathway enzyme DXPS by strategic application of ligand-based virtual screening” (Chemical Science, 2022).

System: H. influenzae
Conditions: Fig. 1A; cited from earlier work

CC1(C)C(=O)ON(Cc2ccccc2Cl)C1=O [Ketoclomazone, ketoclomazone]
Activity on target pathogen: MIC: 49 µM
